In PubChem BioAssay AID1813 (Broad Institute, 2009) one finds inhibition data, which are given here for 87 compounds.

This is a selection; strong and weak results do not stand in their true shares. Some salts or complexes appear as unconnected parts, following the source record. Activity calls are given as the source filed them. Cut-off read from the data, not from the text of the source: active = inhibition above about 60%; inconclusive = no clear call, values can overlap the other calls; inactive = below that.

Broadly, the inhibition is the drop in the measured response relative to a control, in per cent.

This assay in a line: 5' untranslated region of α-synuclein, MLPCN primary screen (AID 1813).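 Note: H4 neuroglioblastoma cells stably carrying SNCA 5'UTR luciferase fusion; 0% = DMSO wells and 100% = positive control.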 Particulars: alpha-synuclein 5'UTR reporter, inhibitor activity; stronger effect = higher value; tested at 7.5 µM.
Turning to `CCCOc1ccc(NP(C)(=O)Oc2ccc(Cl)cc2)cc1` (configuration not stated), the inhibition was inactive: -1.97%.

`CP(=O)(Nc1ccc(SC(F)(F)F)cc1)Oc1ccccc1` (configuration not stated): the inhibition is inactive: 9.01%. The value for `COc1ccccc1OP(C)(=O)Nc1c(C)cccc1C` (configuration not stated) was inactive: -1.46%; that for `CN1CCCCC1COC(=O)C1(O)c2ccccc2CCc2ccccc21` (configuration not stated) was inactive: -11.4%. Consider `CCOC(=O)C(CC)C1=NC(C)(C)Cc2ccccc21.O=[N+]([O-])c1cc([N+](=O)[O-])c(O)c([N+](=O)[O-])c1` (configuration not stated), for which the inhibition is inactive: -11.7%. The value for `O=[N+]([O-])c1cc([N+](=O)[O-])c(Nc2nnnn2CCO)c([N+](=O)[O-])c1` was inactive: -5.94%; that for `O=[N+]([O-])c1cc([N+](=O)[O-])c(-c2cnn(-c3ccccc3)c2)c([N+](=O)[O-])c1` was inactive: 1.94%; that for `O=[N+]([O-])c1cc([N+](=O)[O-])c(-n2nnc3ccccc32)c([N+](=O)[O-])c1` was inactive: -8.58%. The value for `Cc1ccc(C)c(NP(C)(=O)Oc2ccccc2)c1` (configuration not stated) was inactive: -9.77%; that for `Cc1cc(C)cc(OP(C)(=O)Nc2ccccn2)c1` (configuration not stated) was inactive: 18.8%. The value for `CP(=O)(Nc1cccc(Br)c1)Oc1ccccc1` (configuration not stated) was inactive: -3.88%; that for `CCOC(=O)c1ccc(NP(C)(=O)Oc2cc(C)cc(C)c2)cc1` (configuration not stated) was inactive: 12.2%; that for `Cc1cc(C)cc(OP(C)(=O)Nc2ccc(C)cc2C)c1` (configuration not stated) was inactive: 18%.

With `COc1ccccc1OP(C)(=O)Nc1cccc(Br)c1` (configuration not stated), the inhibition was inactive: 8.92%. The value for `CC1=NCCc2c1[nH]c1ccccc21.O=[N+]([O-])c1cc([N+](=O)[O-])c(O)c([N+](=O)[O-])c1` was inactive: -71.5%; that for `O=C(O)c1cccc(Nc2c([N+](=O)[O-])cc([N+](=O)[O-])cc2[N+](=O)[O-])c1` was inactive: 11.9%; that for `Cc1cc(C)cc(OP(C)(N)=O)c1` (configuration not stated) was inactive: 11.1%.

With `COc1ccc(OP(C)(=O)Nc2cccc(F)c2)cc1` (configuration not stated), the inhibition is inactive: 6.7%. Take `COc1ccccc1OP(C)(=O)Nc1cc(Cl)ccc1C` (configuration not stated): the inhibition was inactive: 15%.

As to `Cc1ccc(NP(C)(=O)Oc2ccccc2)c(C)c1` (configuration not stated), the inhibition was inactive: 10.5%.

Consider `COc1ccccc1OP(C)(=O)Nc1ccc(C)cc1` (configuration not stated), for which the inhibition was inactive: 3.58%. The value for `CCOC(=O)c1ccc(NP(C)(=O)Oc2ccccc2)cc1` (configuration not stated) was inactive: -12.6%; that for `O=[N+]([O-])c1ccc2c(c1)C=Nc1ccccc1O2` was inactive: -25.8%; that for `Cc1cccc(C)c1OP(C)(N)=O` (configuration not stated) was inactive: 16.8%. The value for `CC(C)(C)c1ccc(OP(C)(=O)Nc2ccc(SC(F)(F)F)cc2)cc1` (configuration not stated) was inactive: 8.03%. The value for `O=[N+]([O-])c1cc([N+](=O)[O-])c(Nc2cccnc2)c([N+](=O)[O-])c1` was inactive: -3.2%; that for `CCN(CC)CCCOC(=O)C(O)(c1ccccc1)c1ccccc1` was inactive: -19%. Turning to `CP(=O)(Nc1ccccn1)Oc1ccc(Cl)cc1` (configuration not stated), the inhibition was inactive: 15.9%. The value for `CCOC(=O)c1ccc(NP(C)(=O)Oc2ccc(OC)cc2)cc1` (configuration not stated) was inactive: -8.84%. The value for `O=[N+]([O-])c1cc([N+](=O)[O-])c(O)c([N+](=O)[O-])c1.c1ccc(Oc2ccncc2)cc1` was inactive: 1.62%; that for `CCOP(C)(=S)SCC(=O)NC(C)C(=O)O` (configuration not stated) was inactive: 0.155%. The value for `Cc1cc(C)cc(OP(C)(=O)Nc2ccc(SC(F)(F)F)cc2)c1` (configuration not stated) was inactive: 13.9%; that for `CP(=O)(NC(=O)Nc1ccccc1)Oc1ccccc1` (configuration not stated) was inactive: -18.9%; that for `CCc1ccc(OP(C)(=O)N2CCN(c3ccc([N+](=O)[O-])cc3)CC2)cc1` (configuration not stated) was active: 89.1%.

Consider `CP(=O)(Oc1ccccc1)OC(c1ccccc1)C(F)(F)F` (configuration not stated), for which the inhibition was inactive: 22.5%. Turning to `Cc1cccc(C)c1OP(C)(=O)Nc1ccc(SC(F)(F)F)cc1` (configuration not stated), the inhibition is inactive: 15.3%.

On to `CP(=O)(Nc1ccc(SC(F)(F)F)cc1)Oc1ccc(Cl)cc1` (configuration not stated), for which the inhibition is inactive: 0.412%.

Consider `CP(=O)(Nc1ccccc1Br)Oc1ccccc1` (configuration not stated), for which the inhibition was inactive: 13.4%. The value for `COc1ccccc1OP(C)(=O)Nc1ccccc1` (configuration not stated) was inactive: 15.7%. The value for `CP(=S)(Nn1cnnc1)Oc1ccccc1` (configuration not stated) was inactive: 10.2%; that for `CCOC(=O)c1ccc(NP(C)(=O)Oc2ccc(Cl)cc2)cc1` (configuration not stated) was inactive: 11.7%. Turning to `CP(=O)(OC12CC3CC(CC(C3)C1)C2)OC12CC3CC(CC(C3)C1)C2`, the inhibition is inactive: 22.5%. As to `Nc1ccc2c(ccc3cccnc32)n1.O=[N+]([O-])c1cc([N+](=O)[O-])c(O)c([N+](=O)[O-])c1`, the inhibition was inactive: -23.9%. In the case of `CN(C)C(=O)c1c([N+](=O)[O-])cc([N+](=O)[O-])cc1[N+](=O)[O-]`, the inhibition is inactive: -44.7%. The value for `COc1ccccc1OP(C)(=O)Nc1ccccc1Br` (configuration not stated) was inactive: 4.55%; that for `CC(C)(C)c1ccc(OP(C)(=O)O)cc1` was inactive: 11.4%; that for `CP(=O)(Nc1ccc(Cl)cc1)Oc1ccc(F)cc1` (configuration not stated) was inactive: 10.3%. The value for `O=C(OCCCN1CCCC1)C(O)(c1ccccc1)C1CCCCC1` (configuration not stated) was inactive: -16.5%. Consider `COc1ccccc1OP(C)(=O)Nc1c(C)n(C)n(-c2ccccc2)c1=O` (configuration not stated), for which the inhibition was inactive: 11.2%.

Consider `CCc1ccc(OP(C)(=O)Nc2cccnc2)cc1` (configuration not stated), for which the inhibition was inactive: -9.72%. The value for `CP(=O)(Oc1ccccc1)N1CCOC1=O` (configuration not stated) was inactive: 16.8%; that for `COc1ccc(OP(C)(=O)Nc2ccc(Br)cc2)cc1` (configuration not stated) was inactive: 13.1%. As for `CCN(CC)CC(O)COC(=O)C(O)(c1ccccc1)C1CCCCC1` (configuration not stated), the inhibition was inactive: -12.1%.

In the case of `COc1ccccc1OP(C)(=O)Nc1ccc(C)cc1C` (configuration not stated), the inhibition is inactive: 22.6%. In the case of `CP(=O)(Nc1ccccn1)Oc1ccccc1` (configuration not stated), the inhibition is inactive: 4.77%.

In the case of `CCc1ccc(OP(C)(=O)O)cc1`, the inhibition was inactive: -4.76%.

As for `Cc1c(NP(C)(=O)Oc2ccc(C(C)C)cc2)c(=O)n(-c2ccccc2)n1C` (configuration not stated), the inhibition is inactive: 0.526%. The value for `COc1ccc(OP(C)(=O)Nc2ccccn2)cc1` (configuration not stated) was inactive: 26.1%; that for `CN(C)CCOC(=O)C(O)(c1ccccc1)C1CCCC1` (configuration not stated) was inactive: -13.7%; that for `COc1ccccc1OP(C)(=O)Nc1ccc(Br)cc1` (configuration not stated) was inactive: 5.85%. The value for `CP(=O)(Nc1ccc(Cl)cc1Cl)Oc1ccccc1` (configuration not stated) was inactive: 11.7%. The value for `CP(=O)(OCCOc1ccccc1)OCCOc1ccccc1` was inactive: -12.9%; that for `Cc1nc2ccc3ccccc3c2o1.O=[N+]([O-])c1cc([N+](=O)[O-])c(O)c([N+](=O)[O-])c1` was inactive: -99.6%. `COc1ccccc1OP(C)(=O)Nc1ccc(C)c(C)c1` (configuration not stated): the inhibition is inactive: 22.1%. The value for `COc1ccc(OP(C)(=O)Nc2ccccc2Br)cc1` (configuration not stated) was inactive: -24.7%; that for `Cc1cc(C)cc(OP(C)(=O)Nc2cccc(C(F)(F)F)c2)c1` (configuration not stated) was inactive: 14%; that for `CP(=O)(Nc1ccccc1)Oc1ccc(F)cc1` (configuration not stated) was inactive: 6.66%.

For the compound `CCCCCOc1ccc(NP(C)(=O)Oc2ccc(Cl)cc2Cl)cc1` (configuration not stated), the inhibition is inactive: 33%. The value for `O=[N+]([O-])c1cc([N+](=O)[O-])c(OC2CCCCC2O)c([N+](=O)[O-])c1` (configuration not stated) was inactive: 5.46%; that for `CCN(CC)CCCOC(=O)C(O)(c1ccccc1)C1CCCCC1` (configuration not stated) was inactive: 0.354%; that for `CCOC(=O)c1ccc(NP(C)(=O)Oc2ccc(F)cc2)cc1` (configuration not stated) was inactive: -1.62%. The value for `COc1ccc(OP(C)(=O)Nc2ccc(SC(F)(F)F)cc2)cc1` (configuration not stated) was inactive: -10.2%; that for `COc1ccc2c(c1O)-c1c(O)c(OC)cc3c1[C@H](C2)[N+](C)(C)CC3.O=[N+]([O-])c1cc([N+](=O)[O-])c([O-])c([N+](=O)[O-])c1[O-]` was inactive: -3.32%; that for `O=C(OC1CN2CCC1CC2)c1ccc([N+](=O)[O-])cc1` (configuration not stated) was inactive: 18.4%. The value for `O=C(OCCN1CCN(CCOCc2ccccc2)CC1)C(O)(c1ccccc1)c1ccccc1` was inactive: -7.44%; that for `CP(=O)(Nc1ccccc1F)Oc1ccccc1` (configuration not stated) was inactive: -7.34%. On to `CC(C)c1ccc(OP(C)(=O)Nc2ccc(SC(F)(F)F)cc2)cc1` (configuration not stated), for which the inhibition is inactive: 19.3%. The value for `Cc1ccccc1NP(C)(=O)Nc1ccccc1C` was inactive: 22%; that for `CP(=O)(Nc1ccc2c(c1)OCCO2)Oc1ccccc1` (configuration not stated) was inactive: -27.1%; that for `CCOP(C)(=S)SCC(=O)NC(C)(CC)C(=O)O` (configuration not stated) was inactive: 10.2%. Regarding `CP(=O)(Nc1ccc(SC(F)(F)F)cc1)Oc1ccc(F)cc1` (configuration not stated), the inhibition was inactive: -25.5%. The value for `O=[N+]([O-])c1ccc(OP2(=O)COCCO2)cc1` (configuration not stated) was inactive: 8.74%; that for `O=[N+]([O-])c1cc([N+](=O)[O-])c(NCC2CCS(=O)(=O)C2)c([N+](=O)[O-])c1` (configuration not stated) was inactive: -34.7%; that for `Cc1cc(-c2cccc3ccccc23)c(C)cn1.O=[N+]([O-])c1cc([N+](=O)[O-])c(O)c([N+](=O)[O-])c1` was inactive: 13.1%. On to `CN(C)CCOC(=O)C(O)(c1ccccc1)C1CCCCC1` (configuration not stated), for which the inhibition was inactive: 5.02%. The value for `COc1ccc(NP(C)(=O)Oc2ccccc2OC)cc1` (configuration not stated) was inactive: -4.24%; that for `COc1ccc(OP(C)(=O)Nc2cccc(Br)c2)cc1` (configuration not stated) was inactive: -10.8%.
